The source of these data is ChEMBL document CHEMBL1127447, “Isothiocyanate-substituted kappa-selective opioid receptor ligands derived from N-methyl-N-[(1S)-1-phenyl-2-(1-pyrrolidinyl)ethyl] phenylacetamide” (1994).

Amino acid sequences for entries named in this document (tags omitted).
UniProt P41144, whole entry: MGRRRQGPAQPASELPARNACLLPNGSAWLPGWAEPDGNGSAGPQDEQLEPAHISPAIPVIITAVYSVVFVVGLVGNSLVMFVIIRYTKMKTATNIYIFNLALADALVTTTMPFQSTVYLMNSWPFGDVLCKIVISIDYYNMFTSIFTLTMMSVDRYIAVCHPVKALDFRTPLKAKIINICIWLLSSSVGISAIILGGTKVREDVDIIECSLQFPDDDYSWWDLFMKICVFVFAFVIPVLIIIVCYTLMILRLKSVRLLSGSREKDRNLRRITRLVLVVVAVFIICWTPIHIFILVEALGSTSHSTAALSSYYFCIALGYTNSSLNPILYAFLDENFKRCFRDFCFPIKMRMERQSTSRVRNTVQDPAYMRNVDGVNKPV

For assay [1], the target named is Kappa-type opioid receptor (Cavia porcellus) (UniProt P41144). In words: Tested for percentage specific binding of compound at 4.7 nM against [3H]U-69593 on washed kappa-opioid receptor binding site.
Assay [2] shares this target. In words: Tested for percentage specific binding of compound at 4.7 nM against [3H]U-69593 on unwashed kappa-opioid receptor binding site.
For assay [3] the target is unchanged. In words: Tested for percentage specific binding of compound at 4.7 nM against [3H]U-69593 on kappa-opioid receptor binding site protected with 1 uM naloxone.

As to `CN(C(=O)Cc1ccc(Cl)c(Cl)c1)[C@H](CN1CCCC1)c1ccccc1`, the Binding was 20% in assay [1], 25% in assay [2] and 39% in assay [3].
